ClpP mod = qHTS Assay for Activators of ClpP; ATP-dependent Clp protease proteolytic subunit (Bacillus subtilis (strain 168)), P80244; purified B. subtilis ClpP, FRET peptide cleavage, 20 min; Potency, µM (top dose mostly 57.5 µM); actives 1.9% (n = 340,000); active means well fitted falling curve with a large enough effect; inconclusive means small, poorly fitted or top-dose-only effect; inactive means no such curve, though single readings can be large or run the other way; further: the source files actives as falling curves though it sought activators and does not explain the sign; nearly all actives have a fitted effect of over 65% in size
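Buffer: 100 mM Tris/HCl pH8, 100 mM KCl, 0.05% low protease BSA, 2.5% glycerol, 0.01% Tween-20. ClpP 10 microg/mL final; 20 min RT; delta FRET normalized to ADEP and DMSO controls.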
IL-2 act = activates IL-2 in a cell-based reporter assay. IL-2 activation reporter assay, cell-based qHTS; stimulated with anti-CD3/CD4/CD28 beads; in transgenic mouse T cells. activation, % (series mostly up to about 46 µM). actives 0.065% (n = 360,000); in the data active means activation above about 50%; inconclusive means mostly about 30% to 49%
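Unstimulated transgenic mouse T cells preincubated 60 min with compound, then stimulated with anti-CD3/anti-CD4-coated beads plus anti-CD28 for 18 h at 37 degrees C. IL-2 response read as EGFP and DsRed fluorescence by plate cytometry.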
miR-21 reporter = raises the signal of a miR-21 reporter; Potency, µM (doses to about 38.3 µM); HeLa miR-21 FLuc reporter, luciferase, 48 h; AID 2288; 340,000 tested, under 10 active; active = well fitted rising curve with a large enough effect; inconclusive = small, poorly fitted or top-dose-only effect; inactive = no such curve, though single readings can be large or run the other way;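 further: miR-21 action dims this reporter so a rising signal means less miR-21 action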
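Luminescence from a firefly luciferase reporter carrying a miR-21 binding site downstream, stably expressed under a CMV promoter in HeLa cells that make miR-21 endogenously, reports miRNA modulation after 48 h compound exposure up to approximately 40uM final.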
Nrf2 activator = activates Nrf2 signaling; AREc32 ARE-luciferase reporter (MCF7-derived line), luminescence, 24 h; Potency, µM (top dose mostly 46.1 µM), usual class: activators; actives 0.31% (n = 410,000); further: nearly all actives have a fitted effect of over 65% in size
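Each well held 1000 AREc32 cells, which were incubated with compound for 24 hr at 37 deg C after overnight attachment, and ARE reporter activity was quantified by firefly luciferase luminescence.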
A549 viability = A549 cytotoxicity, counter-screen for Nrf2 inhibitors | A549 ARE-Fluc cells, CellTiter-Fluor viability, 18-24 h | Potency, µM (highest dose often 46 µM), most hits filed as inhibitors | actives 0.16% (n = 390,000)
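Cytotoxicity counterscreen: CellTiter-Fluor fluorescence was measured in A549 ARE_Fluc cells after 18-24 h of compound exposure in a concentration series. The subsequent BugLite luminescent read reports ARE-luciferase activity.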
Nrf2 block = blocks Nrf2 signaling. A549 ARE-Fluc reporter, luciferase luminescence, 18-24 h. Potency, µM (series often up to 46 µM), most hits filed as inhibitors. actives 2.1% (n = 360,000). AID 504444; further: nearly all actives have a fitted effect of over 60% in size
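Concentration-response testing used A549 ARE_Fluc cells at 5000 cells/well. Following an 18-24 h compound incubation, viability was read by fluorescence (Ex 405/Em 525) and luciferase output by luminescence.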
Hits are given with their value; n = inactive; u = inconclusive; x = not tested or not shown. An excerpt weighted towards active compounds, which were near 3.7% of everything screened. Unless noted, the call rests on the fitted dose curve; in most records, active means well fitted curve in the direction sought with a large enough effect; inconclusive means small, poorly fitted or top-dose-only effect, or another doubt; inactive means no such curve, though single readings can be large; an effect the other way counts as inactive or inconclusive.

Sequences of proteins named here, by UniProt entry; tags and fusion partners are left off.
ATP-dependent Clp protease proteolytic subunit (Bacillus subtilis (strain 168)), P80244, UniProt P80244, whole entry, looked up: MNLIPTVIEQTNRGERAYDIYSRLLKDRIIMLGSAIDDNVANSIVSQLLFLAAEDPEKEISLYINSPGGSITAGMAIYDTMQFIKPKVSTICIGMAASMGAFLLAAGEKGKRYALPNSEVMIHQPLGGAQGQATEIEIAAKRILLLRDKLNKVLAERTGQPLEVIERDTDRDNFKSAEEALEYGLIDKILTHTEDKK

SMILES	ClpP mod	IL-2 act	miR-21 reporter	Nrf2 activator	A549 viability	Nrf2 block
CC(C)(C)c1ccc(/C=C/C(=O)Nc2ccc(S(N)(=O)=O)cc2)cc1	n	x	u	n	n	n
CC(OC(=O)c1ccccc1Nc1ccc(SC(F)F)cc1)C(N)=O (centres undefined)	n	n	n	n	n	26µM
O=C(NCc1cccc(F)c1)c1cccc(OC2CCN(C(=O)C3CC3)CC2)c1	n	n	n	n	n	23µM
CN(C)CCNC(=O)/C(=C/c1ccc(-c2ccc(Cl)cc2)o1)NC(=O)c1ccccc1	16µM	n	u	n	n	n
CN(C)CCNC(=O)/C(=C/c1ccc(-c2ccc(Cl)cc2Cl)o1)NC(=O)c1ccccc1	n	n	u	n	n	n
CCOC(=O)CC1(CC(=O)OCC)NC(=O)c2c(C)sc(C(=O)OCC)c2N1	35µM	n	n	n	n	n
Cc1ccccc1-n1nc(CSc2nc3ccccc3[nH]2)c(-c2ccccc2)c1N	n	n	n	n	n	23µM
Nc1c(-c2ccccc2)c(CSc2nc3ccccc3[nH]2)nn1-c1cccc(Cl)c1	u	n	n	n	n	23µM
Cc1oc2ncnc(N3CCCCC3)c2c1C(=O)Nc1cccc(Cl)c1C	n	x	u	n	n	n
Cc1cc(C)nc(SCc2nc3nc(C)cc(C)n3c2Br)n1	28µM	n	n	n	n	u
Cc1cc(C)n2c(Br)c(CN3CCCC(C)C3)nc2n1 (centres undefined)	x	n	n	n	n	n
COc1cc(Nc2nc3ccc(Cl)cc3nc2-n2nc(C)cc2C)cc(OC)c1	n	x	n	n	n	n
CCc1cc(C(=O)NC2CCCN(Cc3ccccc3F)C2)n(C)n1 (centres undefined)	n	n	n	n	n	13µM
Cn1nc(C(=O)NC2CCCN(Cc3ccccc3F)C2)c2ccccc2c1=O (centres undefined)	n	n	n	n	n	n
Cn1c(NC(=O)c2ccccc2NC(=O)C(C)(C)C)nc2ccccc21	n	n	n	n	n	16µM
Cn1c(NC(=O)c2ccc(F)cc2)nc2ccccc21	n	n	n	u	n	u
O=C(Cn1c(-c2ccccc2Cl)nc2ccccc21)Nc1cccc(Cl)c1	n	n	n	n	n	n
Cc1cc(C)cc(NC(=O)Cn2c(-c3ccccc3Cl)nc3ccccc32)c1	28µM	n	n	n	n	n
CCc1ccccc1NC(=O)C1CCCN(c2cnccn2)C1 (centres undefined)	n	x	n	n	n	n
CCCn1c(=O)c2sccc2n2c(CCCC(=O)N3CCN(c4cccc(C)c4C)CC3)nnc12	n	x	n	n	n	u
O=C(c1ccc2c(c1)OCO2)N1CCN(c2ccc(C(F)(F)F)cn2)CC1	u	n	n	n	n	12µM
O=C(c1ccc2c(c1)OCCO2)N1CCN(c2ccc(C(F)(F)F)cn2)CC1	n	n	x	n	x	x
CN1CCN(CCCNC(=O)Cn2nc(-c3ccccc3)ccc2=O)CC1	n	n	n	n	n	n
O=C(Cn1nc(-c2ccc(Cl)cc2)ccc1=O)NCCCN1CCN(Cc2ccccc2)CC1	32µM	n	n	n	n	n
CCOC(=O)NN1C(=O)c2ccccc2NC1c1ccc(OC)cc1 (centres undefined)	32µM	n	n	n	n	n
SMILES	ClpP mod	IL-2 act	miR-21 reporter	Nrf2 activator	A549 viability	Nrf2 block
CCOC(=O)NN1C(=O)c2ccccc2NC1c1ccccc1 (centres undefined)	32µM	n	n	n	n	n
CCOC(=O)NN1C(=O)c2ccccc2NC1c1ccc(N(C)C)cc1 (centres undefined)	n	n	n	n	n	n
CCOC(=O)NN1C(=O)c2ccccc2NC1C (centres undefined)	n	n	n	n	n	n
Cc1ccc(Cn2ccn(Cc3ccc(C)cc3)c(=O)c2=O)cc1	n	x	n	n	n	n
CCOc1cc(C2NN=C(c3ccccc3)S2)ccc1OCc1ccc(F)cc1 (centres undefined)	14µM	n	n	11µM	n	u
O=c1[nH]c(CSc2nc3ccccc3[nH]2)nc2c1cnn2-c1ccccc1	n	n	n	n	n	15µM
O=c1[nH]c(SCc2nc3c(cnn3-c3ccccc3)c(=O)[nH]2)nc2ccccc12	n	n	n	n	n	x
COc1ccc2c(c1)oc(=O)c1ccccc12	n	n	n	n	n	n
COc1cc(OC)cc(-c2cc3ccccc3c(=O)o2)c1	28µM	n	x	n	n	n
O=C(COc1ccccc1)Nc1cccc(-c2nc3cc4ccccc4cc3[nH]2)c1	6.3µM	n	n	n	u	x
CC(Oc1ccccc1)C(=O)Nc1cccc(-c2nc3ccccc3[nH]2)c1 (centres undefined)	35µM	n	n	n	n	x
CC(C)COc1ccc(C(=O)Nc2cccc(-c3nc4ccccc4[nH]3)c2)cc1	u	x	n	n	n	23µM
CC(C)CN(CC(C)C)C(=O)C1CCCN(S(=O)(=O)c2ccc3c(c2)oc(=O)n3C)C1 (centres undefined)	n	x	n	n	n	n
Cc1ccc(S(=O)(=O)Nc2nc3ccccc3nc2NCc2ccco2)cc1C	28µM	n	n	n	n	21µM
Cc1ccc(S(=O)(=O)Nc2nc3ccccc3nc2NCc2ccco2)cc1	u	n	n	22µM	n	u
c1ccc(CN2CCN(c3nc(NCc4ccco4)c4ccccc4n3)CC2)cc1	n	n	n	n	u	23µM
Cc1cccc(S(=O)(=O)Nc2nc3ccccc3nc2NCc2ccco2)c1	n	n	n	n	n	u
Cc1cccc(Nc2nc(NCc3ccco3)c3ccccc3n2)c1	20µM	n	u	n	n	u
CCOC(=O)c1ccc2c(c1)N(CC(=O)Nc1ccc(CC)cc1)C(=O)c1ccccc1S2	n	x	n	n	n	x
COc1ccc(C2c3c(n(CCCc4ccccc4)cnc3=N)Oc3ccc4ccccc4c32)cc1OC (centres undefined)	x	x	x	x	n	n
Cc1noc(C)c1CSc1nc2ccccc2nc1NS(=O)(=O)c1ccc(Cl)cc1	n	n	n	n	u	9.2µM
O=S(=O)(Nc1nc2ccccc2nc1NCc1ccco1)c1ccc(Cl)cc1	u	n	n	n	n	21µM
COCCCNc1nc2ccccc2nc1NS(=O)(=O)c1ccc(Cl)cc1	n	n	n	n	n	n
Cc1ccc(NC(=O)N2CCN(Cc3ccc4c(c3)OCO4)CC2)cc1	n	n	n	n	u	u

Bioassay records as filed in PubChem BioAssay.
